Data set [1] deals with Met (pY1349) in NCl-H460 cells (Homo sapiens, UniProt P08581). Description: HGF stimulated Met (pY1349) NCI-H460 cell-based ELISA. To be noted: read-out: relative IC50, H460 assay (c-Met phosphorylation); HGF 100 ng/mL stimulated NCI-H460 cells. The protocol: NCl—H460 cells (purchased from ATCC) are cultured in RPMI 1640 media (Invitrogen) supplemented with 10% Fetal Bovine Serum (FBS) and plated (prior to becoming 70% confluent) in 96-well flat-bottom plates at a density of 20,000 cells per well in 80 μL volume. The cells are then incubated overnight in a cell culture incubator (5% CO2, 95% Relative Humidity (RH) and 37° C.) and allowed to attach to the plate. The following morning the cells are washed with 2 volumes of a Reduced Serum Media (RSM, RPMI 1640 media supplemented with 0.5% FBS). After removal of the last wash, 80 μL of RSM is added to each well of the cell plates. The cell plates are incubated for 2.5 h in a cell culture incubator, and then dosed with compounds. Compound inhibitors are first solubilized at 10 mM in 100% DMSO and then diluted to 100 μM with 2% DMSO RSM. […] After 1 h capture (at RT) the MSD® plate wells are washed with 1× Tris Wash Buffer, and then 150 μL of 1× Read Buffer T (with surfactant, MSD®) is added. Immediately after the addition of the Read Buffer, the plates are analyzed with a SECTOR 6000 MSD® Imager plate reader. Relative IC50 values are determined using MSD activity units by calculating percent inhibition with respect to on-plate “MIN” and “MAX” controls and then fitting the percent inhibition values and ten-point dose response data to a four-parameter logistic equation.
Background: In an ELISA, binding on a coated surface is turned into a signal by an enzyme label.

The chains behind the UniProt entries cited, without tags or fusion partners. Residues count along the entry.
UniProt P08581, 25-1390 limits assumed: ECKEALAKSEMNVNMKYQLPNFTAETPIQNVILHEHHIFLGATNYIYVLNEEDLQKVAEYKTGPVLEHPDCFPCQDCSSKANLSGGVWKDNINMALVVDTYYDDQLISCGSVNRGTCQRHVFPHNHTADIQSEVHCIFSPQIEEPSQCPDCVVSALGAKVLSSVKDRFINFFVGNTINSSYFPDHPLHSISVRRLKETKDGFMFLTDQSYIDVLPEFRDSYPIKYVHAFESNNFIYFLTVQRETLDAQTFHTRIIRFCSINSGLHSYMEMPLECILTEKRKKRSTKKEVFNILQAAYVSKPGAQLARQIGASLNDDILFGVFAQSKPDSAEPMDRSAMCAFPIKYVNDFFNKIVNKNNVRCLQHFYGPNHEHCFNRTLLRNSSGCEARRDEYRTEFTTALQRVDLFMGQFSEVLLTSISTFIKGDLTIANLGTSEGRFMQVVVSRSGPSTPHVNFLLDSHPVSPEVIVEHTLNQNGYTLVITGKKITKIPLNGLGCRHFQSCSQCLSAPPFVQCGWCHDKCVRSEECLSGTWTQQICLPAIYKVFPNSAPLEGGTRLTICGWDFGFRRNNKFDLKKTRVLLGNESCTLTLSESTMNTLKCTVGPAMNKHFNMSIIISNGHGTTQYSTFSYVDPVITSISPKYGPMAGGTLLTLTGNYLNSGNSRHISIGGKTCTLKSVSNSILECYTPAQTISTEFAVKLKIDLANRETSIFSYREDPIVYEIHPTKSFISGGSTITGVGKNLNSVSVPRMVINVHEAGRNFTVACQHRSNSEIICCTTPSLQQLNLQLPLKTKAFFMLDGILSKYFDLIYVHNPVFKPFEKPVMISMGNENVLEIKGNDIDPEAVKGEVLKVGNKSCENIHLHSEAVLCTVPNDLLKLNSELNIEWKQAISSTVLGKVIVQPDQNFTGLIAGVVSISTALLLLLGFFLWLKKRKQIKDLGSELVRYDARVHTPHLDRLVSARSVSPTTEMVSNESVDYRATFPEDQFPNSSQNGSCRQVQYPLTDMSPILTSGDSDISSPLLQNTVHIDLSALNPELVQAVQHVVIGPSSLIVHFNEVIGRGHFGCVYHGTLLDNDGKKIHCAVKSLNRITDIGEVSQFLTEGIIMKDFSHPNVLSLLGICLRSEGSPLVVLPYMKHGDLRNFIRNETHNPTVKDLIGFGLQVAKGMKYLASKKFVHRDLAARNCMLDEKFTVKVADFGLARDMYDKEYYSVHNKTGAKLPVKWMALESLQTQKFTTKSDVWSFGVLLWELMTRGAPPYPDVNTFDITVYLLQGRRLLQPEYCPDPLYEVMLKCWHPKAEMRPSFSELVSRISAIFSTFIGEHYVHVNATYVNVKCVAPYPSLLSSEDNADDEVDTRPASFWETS

A short description of another data set: Dynamic solubility. The protocol:
The solubility of Example 1 and the reference compound (example 25 of the '808 publication) are measured by placing a small quantity of each in a glass vial, capping and rotating the vial overnight at ambient conditions (18 h). The media included simulated gastric fluid (SGF) which comprise of 0.01N HCl, 0.05% sodium lauryl sulfate, and 0.2% NaCl; fasted state simulated intestinal fluid (SIF-fasted) which composed of 29 mM NaH2PO4, 3 mM Na taurocholate, 0.75 mM lecithin, 103 mM NaCl, and NaOH to pH 6.5; fed state simulated intestinal fluid (SIF-fed) which comprise of 144 mM acetic acid, 15 mM Na taurocholate, 3.75 mM lecithin, 204 mM NaCl, and NaOH to pH 5.0; and pH 4.5, 6, 7.5 buffers which are 28-56 mM phosphate buffers. The compound concentrations are determined using Agilent 1200 HPLC (LC5) with a UV detector. Mobile phase uses A (85%) which is water containing 0.1% TFA and B (15%) which is ACN at a flow rate of 1 mL/min and run time of 10 min. Column of Zorbax, Bonus-RP (3.5 μm, 4.6×75 mm; SN: USTM002428) is used in the studies.

Another data set deals with 99 kinases. Briefly: Cerep Express Diversity Kinase Profile screening. An excerpt:
The Express Diversity Kinase Profile™ is a screening service developed by Cerep SA (Paris, France). Details of assay conditions and/or contact information can be found on their website http://www.cerep.fecerep/users/pages/catalog/profiles/catalog.asp).

Data set [2] in a line: Kinetic solubility screen (nephelometry). As to conditions: 50 mM phosphate buffer pH 7.4, 2 h RT, from 10 mM DMSO. The protocol: The assay is used to determine the concentration range in which a compound that has been pre-solubilized in DMSO at 10 mM will precipitate from a solution. The assay is conducted in a screening format on a 96-well plate and measures the nephelometry (light scattering) from precipitated compound in aqueous phosphate buffer (50 mM; pH 7.4). This method consists of a 2-hour RT (room temperature) incubation of compound in buffer at concentrations of 10, 20, 40, 60, 80, and 100 μM (where % DMSO is kept constant). Plates are pre-read by the nephelometer to determine if scratches or dust particles are present and this is used for background subtraction. The reported values are the concentrations at which the last soluble and first insoluble are achieved. These assays are not optimized to assess equilibrium solubility or determine a “true” kinetic solubility.

In general, IC50 refers to the concentration needed to halve the response being measured.

For the compound `Cn1cc(-c2ccc3nnc(Sc4ccc5ncn(C)c5c4)n3n2)cn1`, the IC50 in data set [1] was 65 nM. Besides, the “Dynamic solubility, 0.01N HCl” value in “Dynamic solubility” (0.01N HCl) came to 332 µg/mL. In the data set “Dynamic solubility” (0.1N HCl), the “Dynamic solubility, 0.1N HCl” value was determined as 1894 µg/mL. The “Dynamic solubility, SIF Fasted” value in the data set “Dynamic solubility” (fasted state simulated intestinal fluid pH 6.5, 18 h ambient) was 1 µg/mL. Moreover, the “Dynamic solubility, SIF Fed” value in the data set “Dynamic solubility” (fed state simulated intestinal fluid pH 5.0, 18 h ambient) is 5 µg/mL. For the same compound, the “Dynamic solubility, pH ≧ 4 buffer” value in the data set “Dynamic solubility” (pH ≧ 4 phosphate buffer) is given as around 0.002 mg/mL. The “Dynamic solubility, SGF” value in “Dynamic solubility” (simulated gastric fluid, 18 h ambient) was 57 µg/mL. The “Dynamic solubility, Water” value in “Dynamic solubility” (water) came out at 1 µg/mL. The “Kinases inhibited in Cerep screening of 99 kinases” value on 99 kinases was “inhibited only c-Met”. Moreover, in data set [2], the “1st insoluble pH 7.4” value is 49 μM and the “Last soluble pH 7.4” value was 29 μM.
